This assay deals with T1, Gastrin/cholecystokinin type B receptor (Rattus norvegicus, UniProt P30553).
T1 sequence (P30553 whole entry): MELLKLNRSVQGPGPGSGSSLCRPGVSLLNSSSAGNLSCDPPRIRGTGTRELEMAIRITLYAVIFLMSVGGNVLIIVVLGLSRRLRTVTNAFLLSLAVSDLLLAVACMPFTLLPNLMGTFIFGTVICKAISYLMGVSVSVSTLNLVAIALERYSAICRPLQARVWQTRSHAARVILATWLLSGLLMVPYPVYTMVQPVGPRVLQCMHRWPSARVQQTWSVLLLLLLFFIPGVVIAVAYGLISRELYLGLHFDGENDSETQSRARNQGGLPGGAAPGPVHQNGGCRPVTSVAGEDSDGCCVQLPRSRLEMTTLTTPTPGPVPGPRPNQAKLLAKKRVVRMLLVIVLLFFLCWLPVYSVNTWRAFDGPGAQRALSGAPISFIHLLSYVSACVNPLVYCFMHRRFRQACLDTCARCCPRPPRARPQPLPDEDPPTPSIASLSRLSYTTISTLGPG
Nature of the assay: Affinity for CCK2 receptor assessed by inhibition of pentagastrin-stimulated acid secretion in perfused rat stomach. Type of assay: functional, tissue-based. As to conditions: read-out: pA2 (converted).

As for `CNc1cccc(NC(=O)CN2N=C(C3CCCCC3)c3ccccc3N(CC(=O)C(C)(C)C)C2=O)c1`, the Kb is 1.32 nM.

The values are drawn from ChEMBL document CHEMBL1146080, “Novel, achiral 1,3,4-benzotriazepine analogues of 1,4-benzodiazepine-based CCK(2) antagonists that display high selectivity over CCK(1) receptors” (J Med Chem, 2006).
